Molecular target: T1, Human GIPr (Homo sapiens, UniProt P48546)
T1 construct: expressed in transfected cells
T1 sequence (P48546 22-466): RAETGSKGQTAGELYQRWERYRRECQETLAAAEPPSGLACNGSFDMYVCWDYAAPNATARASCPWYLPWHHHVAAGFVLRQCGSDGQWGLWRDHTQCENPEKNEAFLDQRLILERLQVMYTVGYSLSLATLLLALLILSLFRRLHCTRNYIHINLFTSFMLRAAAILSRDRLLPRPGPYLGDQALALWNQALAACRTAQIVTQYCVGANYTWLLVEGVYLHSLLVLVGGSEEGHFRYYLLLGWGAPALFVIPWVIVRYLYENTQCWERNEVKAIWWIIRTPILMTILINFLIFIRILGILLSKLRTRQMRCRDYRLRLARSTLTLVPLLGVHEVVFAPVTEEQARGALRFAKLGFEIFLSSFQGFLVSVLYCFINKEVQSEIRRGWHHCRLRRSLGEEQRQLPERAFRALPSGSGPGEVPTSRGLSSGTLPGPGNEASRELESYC
Test: cAMP activity assay in assay medium (assay 1)
Format: cell-based
Conditions: Table 4, read-out: hGIPR EC50
Excerpt: Biological Activity of Peptides in Cell-Based cAMP Activity Assay (Assay 1):
All sample dilutions were made in duplicate.

Substance: GLP1 [reference compound]
- EC50: 153 nM
